Amino acid sequences for entries named in this document (tags omitted). Residues count along the entry.
UniProt P07477, 24-247: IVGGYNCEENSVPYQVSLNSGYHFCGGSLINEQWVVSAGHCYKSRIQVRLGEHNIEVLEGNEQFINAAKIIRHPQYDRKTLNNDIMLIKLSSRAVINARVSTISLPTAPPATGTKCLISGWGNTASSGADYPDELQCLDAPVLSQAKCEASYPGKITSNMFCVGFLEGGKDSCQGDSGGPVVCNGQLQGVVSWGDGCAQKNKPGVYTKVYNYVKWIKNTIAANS

In US9199927B2, “Guanidinobenzoic acid compound” (Astellas Pharma Inc., priority 2011, dated 2015):

Legend:
[1] = biological target: mouse trypsin (m-trypsin); assay: Inhibitory activity of trypsin enzyme (mouse trypsin purified from small intestine contents, BZiPAR fluorescent substrate); format: biochemical; details: mouse trypsin diluted 1/50, BZiPAR substrate, 30 minutes at room temperature
From the text: (§1) 1. Inhibitory Activity of Trypsin Enzyme in Humans and Mice
(§2) In the experiment, human recombinant trypsin (r-h trypsin; manufactured by WAKO, cat. #206-17171) and mouse trypsin (m-trypsin; purified from the mouse small intestine contents by the present Company) were used.
The method to extract the trypsin from the mouse small intestine is shown below.
The small intestine contents and the gastrointestinal tract of 10 mice were suspended in PBS using Polytron and subjected to centrifugation at 15,000×g several times. The supernatant was mixed at 4° C. for 16 hours with a Benzamidine Sepharose 4 Fast Flow Resin (GE Healthcare: #17-5123-10). After washing the resin with PBS, m-trypsin was eluted with a glycine elution buffer (pH 3.0). It was confirmed by Western blot analysis that the purified fraction was recognized as Anti-mouse Trypsin Antibody (Santa Cruz Biotechnology, Inc.: sc-67388)).
(§3) The outline of the measurement method is shown below.
(§4) The compound was dissolved in dimethyl sulfoxide (DMSO), and diluted to an arbitrary concentration (A). A was 100-fold diluted with a buffer (0.1 M Tris (pH 8.0), 0.15 M NaCl, 10 mM CaCl2, 0.05% Brij38) (B). The r-h trypsin was diluted with a buffer to 0.088 μg/mL, and the m-trypsin was diluted with a buffer to 1/50 (C). […] The substrate solution of a substrate for the enzyme reaction, BZiPAR, (Rhodamine Reference Substrate) was diluted with a buffer to 5 μmol/L (D). B; 5 μL, C; 5 μL, and D; 10 μL were added to a 384-plate, and incubated at room temperature for 30 minutes. The fluorescent signals were detected with Ex/Em=497/520 using Tecan Safire Fluorometer. […] Based on the obtained inhibitory rates, IC50 values (nM) were calculated from the non-linear regression. The test was carried out in the same manner, using camostat as a control compound.
(§5) Ex in the table represents the Example No. as denoted below.

[2] = biological target: human recombinant trypsin (r-h trypsin) (Homo sapiens (Human), UniProt P07477); assay: Inhibitory activity of trypsin enzyme (human recombinant trypsin, BZiPAR fluorescent substrate); format: biochemical; details: human recombinant trypsin 0.088 μg/mL, 30 minutes at room temperature
Procedure: as §1, §2, §3, §4, §5

SMILES | IC50 [1] | IC50 [2]
N=C(N)Nc1ccc(C(=O)Oc2ccc(CC(=O)N[C@@H](Cc3ccc(Cl)cc3)C(=O)O)c(Cl)c2)cc1 [Example 15] | 0.19 nM | 0.2 nM
N=C(N)Nc1ccc(C(=O)Oc2ccc3nc(C(=O)N(CC(=O)O)Cc4ccc(CC(=O)O)cc4)ccc3c2)cc1 [Example 113] | 0.28 nM | 0.24 nM
CC(C(=O)N(CC(=O)O)Cc1cccc(C(=O)O)c1)c1ccc(OC(=O)c2ccc(NC(=N)N)cc2)cc1Cl (stereo not drawn) [Example 108] | 0.14 nM | 0.19 nM
N=C(N)Nc1ccc(C(=O)Oc2ccc3nc(C(=O)N[C@@H](CC(=O)O)c4ccccc4)ccc3c2)cc1 [Example 28] | 0.17 nM | 0.24 nM
N=C(N)Nc1ccc(C(=O)Oc2ccc(CCC(=O)N(CC(=O)O)Cc3csc(C(=O)O)c3)c(Cl)c2)cc1 [Example 63] | 0.41 nM | 0.43 nM
N=C(N)Nc1ccc(C(=O)Oc2ccc(CCC(=O)NCc3cccc(C(=O)O)c3)c(Cl)c2)cc1 [Example 20] | 0.54 nM | 0.9 nM
N=C(N)Nc1ccc(C(=O)Oc2ccc3nc(C(=O)N[C@H](C(=O)O)c4ccccc4)ccc3c2)cc1 [Example 21] | 0.17 nM | 0.26 nM
N=C(N)Nc1ccc(C(=O)Oc2ccc(CCC(=O)N(CC(=O)O)c3cccc(CC(=O)O)c3)c(Cl)c2)cc1 [Example 41] | 0.31 nM | 0.32 nM
COc1ccc(C[C@H](NC(=O)Cc2ccc(OC(=O)c3ccc(NC(=N)N)cc3)cc2Cl)C(=O)O)cc1 [Example 16] | 0.26 nM | 0.23 nM
N=C(N)Nc1ccc(C(=O)Oc2ccc(CC(=O)N[C@@H](Cc3ccc(F)cc3)C(=O)O)c(Cl)c2)cc1 [Example 14] | 0.22 nM | 0.23 nM
N=C(N)Nc1ccc(C(=O)Oc2ccc(CCC(=O)N[C@@H](CC(=O)O)c3ccccc3)c(Cl)c2)cc1 [Example 23] | 0.28 nM | 0.34 nM
N=C(N)Nc1ccc(C(=O)Oc2ccc3cc(C(=O)N[C@@H](Cc4ccccc4)C(=O)O)[nH]c3c2)cc1 [Example 119] | 7.5 nM | 8.6 nM
